The assay deals with T1, hV1a receptor (Homo sapiens, UniProt P37288).
T1 construct: expressed in transfected cells; host or cells: HEK-293
Description: In vitro receptor assay: transcriptional reporter (luciferase) assay of agonist activity in HEK-293 cells transiently transfected with hV1a receptor. In kind it is cell-based. The following applies: hV1a receptor in HEK-293 cells, 5 hours exposure, geometric mean of at least three independent experiments, nanomol/L, read-out: EC50 (median effective concentration). As to the method:
Agonist activity of compounds on the hV1a receptor was determined in a transcriptional reporter assay by transiently transfecting a hV1a receptor expression DNA into HEK-293 cells in concert with a reporter DNA containing intracellular calcium responsive promoter elements regulating expression of firefly luciferase. See Boss, V., Talpade, D. J., Murphy, T. J. J. Biol. Chem. 1996, May 3; 271(18), 10429-10432 for further guidance on this assay.
The EC50 value given is the geometric mean expressed in nanomol/L (nM).

The chains behind the UniProt entries cited, without tags or fusion partners.
UniProt P37288, whole entry: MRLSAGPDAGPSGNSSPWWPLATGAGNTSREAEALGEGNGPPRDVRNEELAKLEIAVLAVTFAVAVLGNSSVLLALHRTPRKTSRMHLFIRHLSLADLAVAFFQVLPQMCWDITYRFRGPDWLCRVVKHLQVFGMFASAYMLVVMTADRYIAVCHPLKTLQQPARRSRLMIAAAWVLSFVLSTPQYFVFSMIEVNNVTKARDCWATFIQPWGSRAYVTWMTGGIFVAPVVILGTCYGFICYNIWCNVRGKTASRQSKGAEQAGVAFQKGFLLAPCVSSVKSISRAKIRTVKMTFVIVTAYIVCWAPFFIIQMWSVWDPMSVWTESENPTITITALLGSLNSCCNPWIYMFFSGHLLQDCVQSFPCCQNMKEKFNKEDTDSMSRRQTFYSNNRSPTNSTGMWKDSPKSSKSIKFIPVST

On to `CC[C@H](C)[C@@H]1NC(=O)[C@H](CC(C)(C)C)NC(=O)[C@@H](N)CSSC[C@@H](C(=O)N2CCC[C@H]2C(=O)N[C@@H](CCN)C(=O)NCC(N)=O)NC(=O)[C@H](CC(N)=O)NC(=O)[C@H](CCC(N)=O)NC1=O` [compound 5], for which the EC50 was determined as 10.7 nM. Next, `CC[C@H](C)[C@@H]1NC(=O)[C@H](CC(C)C)NC(=O)[C@@H](N)CSSC[C@@H](C(=O)N2CCC[C@H]2C(=O)N[C@@H](CCN)C(=O)NCC(N)=O)NC(=O)[C@H](CC(N)=O)NC(=O)[C@H](CCC(N)=O)NC1=O` [compound 6]: 12 nM.

Source of the values: patent US8883965B2, “Compounds” (Ferring B.V., priority 2006, dated 2014).
